Test results reported in ChEMBL document CHEMBL1144950, “Structure--activity relationships of azasugar-based MMP/ADAM inhibitors” (Bioorg Med Chem Lett, 2003).

Amino acid sequences for entries named in this document (tags omitted). A change or cut given only in a name is not applied to a line headed by its entry.
UniProt P78536: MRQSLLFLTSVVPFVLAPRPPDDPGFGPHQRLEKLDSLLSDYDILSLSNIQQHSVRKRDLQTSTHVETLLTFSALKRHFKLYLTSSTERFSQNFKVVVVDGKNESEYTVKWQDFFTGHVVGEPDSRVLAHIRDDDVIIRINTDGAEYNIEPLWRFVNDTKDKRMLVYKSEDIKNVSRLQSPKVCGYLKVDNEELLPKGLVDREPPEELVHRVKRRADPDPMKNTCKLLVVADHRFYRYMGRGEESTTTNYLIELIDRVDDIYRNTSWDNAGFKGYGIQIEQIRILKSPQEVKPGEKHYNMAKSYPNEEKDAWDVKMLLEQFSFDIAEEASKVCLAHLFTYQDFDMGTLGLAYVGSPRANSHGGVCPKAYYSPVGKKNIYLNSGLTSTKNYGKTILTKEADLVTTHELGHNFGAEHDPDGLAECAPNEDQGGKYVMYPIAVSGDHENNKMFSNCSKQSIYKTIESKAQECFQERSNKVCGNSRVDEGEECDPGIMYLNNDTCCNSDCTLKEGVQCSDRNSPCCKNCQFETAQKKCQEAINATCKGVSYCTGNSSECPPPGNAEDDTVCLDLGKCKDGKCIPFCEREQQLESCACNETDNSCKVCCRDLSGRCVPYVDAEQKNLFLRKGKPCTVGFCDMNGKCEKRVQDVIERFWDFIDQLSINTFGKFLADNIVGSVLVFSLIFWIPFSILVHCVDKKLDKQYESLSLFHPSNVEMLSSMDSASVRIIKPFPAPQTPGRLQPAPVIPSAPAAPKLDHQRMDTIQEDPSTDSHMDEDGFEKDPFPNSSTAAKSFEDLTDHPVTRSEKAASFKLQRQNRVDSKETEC

Molecular target: Disintegrin and metalloproteinase domain-containing protein 17 (Homo sapiens, UniProt P78536)
Assay: Inhibition of recombinant human TNF-alpha converting enzyme (TACE)

Ki: 0.4 nM
SMILES: CNC(=O)[C@@H](NC(=O)[C@H](CC(C)C)[C@H](O)C(=O)NO)C(C)(C)C
